Experimental data reported in PubChem BioAssay (Tox21).
This is a selection; strong and weak results do not stand in their true shares. Records with an inconclusive call do not appear. Where a structure was tested more than once in an assay, its records may differ in their call. Activity calls are given as the source filed them. Calls come from the whole dose curve; as a rule, active = well fitted cell-killing curve with a large enough effect in the repeat runs; inconclusive = weak or mixed curves, or effect the other way; inactive = flat fitted curve, though single readings scatter.

Assay: Human pregnane X receptor (PXR) small molecule agonists, qHTS cell viability counter screen (AID 1346977); note: nearly all actives have a fitted effect of over 50% in size
Conditions: PXR-Luc HepG2 viability, CellTiter-Fluor, 24 h; series mostly up to 92.4 µM; activity change, negative = cytotoxicity: at the top concentration
Description: U.S. Tox21 Program National Center for Advancing Translational Sciences [NCATS] NIH Chemical Genomics Center [NCGC] U.S. Environmental Protection Agency [EPA] National Institutes of Environmental Health Sciences [NIEHS] National Toxicology Program [NTP] U.S. Food and Drug Administration [FDA] Tox21 Assay Overview: The human pregnane X receptor (hPXR) regulates the expression of several drug metabolizing enzymes and induction of these proteins is a major mechanism for developing drug resistance in cancer. One such key enzyme catalyzing the drug metabolism is cytochrome P450 3A4 (CYP3A4). Changes in CYP3A4 expression affect drug metabolism, thereby reducing the therapeutic efficacy and altering toxicological response to a drug and which finally causes adverse drug interaction. To screen Tox21 libraries for compounds that activate hPXR-mediated CYP3A4 gene expression, PXR-Luc HepG2 cells were used. Also cytotoxicity of the compounds was tested in parallel by measuring the cell viability using CellTiter-Fluor assay system in the same wells.
Tox21 Assay Protocol Summary: PXR-Luc HepG2 cells were dispensed at 2,000 per well in 5uL of assay medium containing 5% charcoal-stripped FBS into white solid bottom 1536-well plates (Corning Life Sciences, Corning, NY) using a Multidrop Combi (Thermo Scientific, Waltham, MA) dispenser. The assay plates were incubated at 37 C and 5% CO2 for 5hr, and then 23nL of compounds dissolved in DMSO and positive control were transferred using a Pintool station (Wako, San Diego, CA). The assay plates were incubated at 37C and 5% CO2 for 24hr. For cytotoxicity read, after 23hr incubation at 37C, 1uL CellTiter-Fluor reagent (Promega Corporation, Madison, WI) was added to each well of the assay plates using Flying Reagent Dispenser (FRD, Aurora Discovery, San Diego, CA). After 1hr incubation at 37C and 5% CO2, the fluorescence signal was quantified using a ViewLux plate reader (PerkinElmer, Shelton, CT).
% is set by controls: 0 for no effect and ±100 for the full control effect; potency is the fitted concentration of half-maximal effect.

SMILES	activity change, negative = cytotoxicity	Potency
C/C1=C2N=C(/C=C3N=C(/C(C)=C4\[N-][C@@](C)([C@@H]5N=C1[C@](C)(CCC(=O)NC[C@@H](C)OP(=O)([O-])O[C@H]1[C@@H](O)[C@@H](n6cnc7cc(C)c(C)cc76)O[C@@H]1CO)[C@H]5CC(N)=O)[C@@](C)(CC(N)=O)[C@@H]4CCC(N)=O)[C@@](C)(CC(N)=O)[C@@H]\3CCC(N)=O)C(C)(C)[C@@H]/2CCC(N)=O.[C-]#N.[Co+3]	inactive: -5.44% [at 42.5 µM]	–
OCCSCCO	–	inactive
N#CBr	inactive: 0.825%	–
CC(C)N(CCO)C(C)C	inactive: 14.7%	–
CP(=O)(O)OCCC[Si](O)(O)O	inactive: -1.17%	–
COc1ccc([N+](=O)[O-])cc1[N+](=O)[O-]	inactive: -0.163%	–
COP(C)(=O)OC	–	inactive
CN(C)CCCl	inactive: -8.85%	–
Cc1ccc([N+](=O)[O-])c([N+](=O)[O-])c1	inactive: -19.7%	–
CCOP(=O)(CC)OCC	inactive: 4.13%	–
O=[N+]([O-])c1cccc([N+](=O)[O-])c1	inactive: 8.78%	–
O=[N+]([O-])[O-].[NH4+]	–	inactive
N=C(N)N[N+](=O)[O-]	inactive: -4.4%	–
CC(C)OP(C)(=O)OC(C)C	–	inactive
CCN(CC)CCCl	inactive: -1.97%	–
Cc1c([N+](=O)[O-])cccc1[N+](=O)[O-]	–	inactive
Cc1ccc([N+](=O)[O-])cc1[N+](=O)[O-]	–	active: 20 µM and inactive
CCOP(=O)(CC)Oc1ccc([N+](=O)[O-])cc1 (centres undefined)	inactive: -22.2% [at 42.5 µM]	–
[NH4+].[O-][Cl+3]([O-])([O-])[O-]	–	inactive
